# Only a part is listed here, and it is no random draw. Some of these compounds have results that are not shown, active ones among them. Active and inactive are the calls of the source.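 How the source made its calls: active means plate passing quality check with inhibition over a set limit, or well fluorescence over plate mean plus 4 SD; inactive means the rest.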
# Assay: inhibitors of Candida efflux pumps in yeast, primary screen, S. cerevisiae, Nile Red, multiplex (AID 485275);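 further: Nile Red retained in pooled yeast measured as flow cytometry median fluorescence; 0% = buffer negative control and 100% = Enniatin B positive control; higher means more Nile Red kept so more efflux inhibition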
# Details: S. cerevisiae Candida pump triplex, at 10 µM, stronger effect = higher value
row,SMILES,inhibition
1,CN(C)c1ccc(C(=O)NCC2(N(C)C)CCCCC2)cc1,inactive: -0.05%
2,CN(C)C1CCCC1OC(=O)C(O)(c1ccccc1)c1ccccc1 (centres undefined),inactive: 0.18%
3,Cc1ccccc1C(=O)NCC1(N2CCCCC2)CCCCC1,inactive: 0.04%
4,O=C(NCC1(N2CCCCC2)CCCCC1)c1cc(F)c(F)cc1Cl,inactive: 0.03%
5,C=CCN1CCN(CCOC(=O)C(O)(c2ccccc2)c2ccccc2)CC1,inactive: 0.15%
6,O=C(NCC1(N2CCCCC2)CCCCC1)c1cccc(Br)c1,inactive: 0.48%
7,CCN1CCCC(OC(=O)C2(O)c3ccccc3C=Cc3ccccc32)C1 (centres undefined),inactive: 0.02%
8,Cc1cc(C(=O)NCC2(N3CCCCC3)CCCCC2)ccc1[N+](=O)[O-],inactive: -0.31%
9,COc1ccc(C(=O)NCC2(N(C)C)CCCCC2)cc1,inactive: 0.18%
10,O=C(NCC1(N2CCCCC2)CCCCC1)c1cc([N+](=O)[O-])ccc1Cl,inactive: -0.08%
11,CN1[C@@H]2CC[C@H]1CC(OC(=O)C(O)(c1ccccc1)c1ccccc1)C2 (some centres undefined),inactive: -0.09%
12,CC(C)N1C(=O)CC2(CCN(CCOC(=O)C(O)(c3ccccc3)c3ccccc3)CC2)C1=O,inactive: 0.03%
13,COc1cc(SC)ccc1C(=O)NCC1(N(C)C)CCCCC1,inactive: -0.01%
14,CCN(CC)CC(C)C(C)OC(=O)C(O)(c1ccccc1)c1ccccc1 (centres undefined),inactive: -0.11%
15,Cc1ccc(C(=O)NCC2(N3CCCCC3)CCCCC2)cc1,inactive: -0.19%
16,O=C(OC1CN2CCC1CC2)C(CO)(c1ccccc1)c1ccccc1 (centres undefined),inactive: 0.02%
17,COc1ccc(Br)c(C(=O)NCC2(N3CCCCC3)CCCCC2)c1,inactive: -0.22%
18,CN(C)c1cccc(C(=O)NCC2(N(C)C)CCCCC2)c1,inactive: -0.09%
19,CC(C)Oc1ccc(C(=O)NCC2(N(C)C)CCCCC2)cc1,inactive: 0.13%
20,CN(C)C1(CNC(=O)c2ccc(Br)cc2)CCCCC1,inactive: -0.94%
21,COc1cc(C(=O)NCC2(N(C)C)CCCCC2)c([N+](=O)[O-])cc1OC,inactive: 0.22%
22,COc1ccc(Cl)cc1C(=O)NCC1(N(C)C)CCCCC1,inactive: -0.01%
23,COc1cccc(C(=O)NCC2(N3CCCCC3)CCCCC2)c1,inactive: -0.47%
24,O=C(NCC1(N2CCCCC2)CCCCC1)c1cccc(Cl)c1,inactive: 0.04%

# — PubChem BioAssay AID485275 (NMMLSC, 2010)
